Consider 3 molecules from patent publication US20010009912A1, “NEW DERIVATIVES OF PYRIDIL PIPERAZINE OR PYRIDAZINYL PIPERAZYL, PROCESS FOR PRODUCTION THEREOF AND MEDICAMENTS CONTAINING THESE COMPOUNDS” (priority 1995, published 2001).

The chains behind the UniProt entries cited, without tags or fusion partners. Residues count along the entry.
UniProt P05106, 27-788 limits assumed: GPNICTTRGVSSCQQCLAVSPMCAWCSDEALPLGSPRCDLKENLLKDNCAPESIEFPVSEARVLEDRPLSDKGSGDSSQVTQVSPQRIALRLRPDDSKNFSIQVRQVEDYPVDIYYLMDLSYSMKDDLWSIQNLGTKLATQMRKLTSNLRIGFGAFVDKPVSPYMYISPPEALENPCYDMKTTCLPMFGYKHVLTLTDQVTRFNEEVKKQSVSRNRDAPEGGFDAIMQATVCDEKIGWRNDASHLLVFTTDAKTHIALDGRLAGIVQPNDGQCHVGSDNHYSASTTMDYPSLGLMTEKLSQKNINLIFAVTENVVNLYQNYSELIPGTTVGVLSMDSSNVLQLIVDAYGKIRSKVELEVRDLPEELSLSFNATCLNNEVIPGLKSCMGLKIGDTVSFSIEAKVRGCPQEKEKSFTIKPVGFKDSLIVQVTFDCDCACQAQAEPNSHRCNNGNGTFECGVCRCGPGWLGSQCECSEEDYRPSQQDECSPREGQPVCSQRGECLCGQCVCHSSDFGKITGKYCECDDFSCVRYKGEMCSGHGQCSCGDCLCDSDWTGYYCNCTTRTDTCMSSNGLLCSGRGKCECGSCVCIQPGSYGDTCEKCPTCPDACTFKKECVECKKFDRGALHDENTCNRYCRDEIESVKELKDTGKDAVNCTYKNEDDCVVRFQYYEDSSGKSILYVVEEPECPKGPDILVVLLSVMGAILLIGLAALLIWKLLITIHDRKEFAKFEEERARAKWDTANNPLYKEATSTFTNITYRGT
UniProt P08514, 32-887 limits assumed: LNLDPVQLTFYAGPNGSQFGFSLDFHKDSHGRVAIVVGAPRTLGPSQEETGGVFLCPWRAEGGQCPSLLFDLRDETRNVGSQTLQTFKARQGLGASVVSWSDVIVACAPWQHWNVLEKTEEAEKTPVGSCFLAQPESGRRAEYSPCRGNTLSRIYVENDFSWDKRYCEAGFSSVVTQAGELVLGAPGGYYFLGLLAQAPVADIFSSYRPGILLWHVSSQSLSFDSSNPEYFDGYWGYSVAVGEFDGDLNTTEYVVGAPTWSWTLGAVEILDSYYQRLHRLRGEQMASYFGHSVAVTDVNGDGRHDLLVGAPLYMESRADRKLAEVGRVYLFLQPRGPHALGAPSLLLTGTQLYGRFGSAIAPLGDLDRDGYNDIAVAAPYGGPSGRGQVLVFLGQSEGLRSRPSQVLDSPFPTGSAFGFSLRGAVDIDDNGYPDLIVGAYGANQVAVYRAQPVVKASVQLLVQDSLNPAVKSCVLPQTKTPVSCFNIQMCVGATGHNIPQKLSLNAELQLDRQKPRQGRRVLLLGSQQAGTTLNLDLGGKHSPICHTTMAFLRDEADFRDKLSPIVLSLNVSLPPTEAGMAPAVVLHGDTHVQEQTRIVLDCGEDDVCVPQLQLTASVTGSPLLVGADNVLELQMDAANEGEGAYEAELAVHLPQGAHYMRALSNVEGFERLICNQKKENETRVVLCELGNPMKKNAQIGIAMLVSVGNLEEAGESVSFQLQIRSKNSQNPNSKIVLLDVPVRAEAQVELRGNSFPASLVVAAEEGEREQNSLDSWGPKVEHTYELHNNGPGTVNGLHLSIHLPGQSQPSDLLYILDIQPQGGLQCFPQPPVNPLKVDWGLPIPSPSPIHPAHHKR
UniProt P08514, 891-1039 partner limits assumed: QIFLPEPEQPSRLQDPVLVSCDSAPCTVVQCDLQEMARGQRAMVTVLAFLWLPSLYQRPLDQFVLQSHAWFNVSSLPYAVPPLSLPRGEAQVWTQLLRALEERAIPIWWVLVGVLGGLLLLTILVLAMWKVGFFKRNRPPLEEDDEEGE

The target in the experiment is isolated activated GpIIb/IIIa receptor (Homo sapiens, UniProt P05106+P08514). The experiment is described as follows: GpIIb/IIIa-Fibrinogen-ELISA (inhibition of fibrinogen binding to coated receptor). To be noted: inhibition of fibrinogen-GpIIb/IIIa interaction, O.D. at 405 nm, tested form: trifluoroacetate. Here is the method:
Microtitre plates are coated overnight with 2 μg/ml isolated activated GpIIb/IIIa receptor. After removing the unbound receptor by several washing steps, the surface of the plates is blocked with 1% casein and washed again. The test substance is added in the required concentrations and the plates are incubated for 10 minutes while shaking in a linear shaker. The natural ligand of the gpIIb/IIIa receptor, fibrinogen, is added. After 1 hour of incubation the unbound fibrinogen is removed by several washing steps and bound fibrinogen is detected by a peroxidase-conjugated anti-fibrinogen monoclonal antibody by measuring the O.D. at 405 nm in an ELISA-reader. Inhibition of fibrinogen-GpIIb/IIIa interaction results in a low O.D. An IC50 is calculated in relation to a concentration-effect curve.
The GpIIb/IIIa-Fibrinogen-ELISA is a modification of the assays described in the following literature:
Nachman, R. L. & Leung, L. L. K. (1982): Complex formation of platelet membrane glycoproteins IIb and IIIa with fibrinogen. J. Clin. Invest. 69:263-269. Wright, P. S. et al. (1993): An echistatin C-terminal peptide activated GpIIbIIIa binding to fibrinogen, fibronectin, vitronectin and collagen type I and type IV. Biochem. J. 293:263-276.
For orientation: In an ELISA, binding on a coated surface is turned into a signal by an enzyme label.

As a reminder, the pIC50 is −log10 of the IC50, conventionally taken in molar units. Higher therefore signals a small IC50.

pIC50: −log10 of the molar value.

Molecule `O=C(O)CC1(O)CCC(CC(=O)N2CCN(c3ccncc3)CC2)CC1` (stereo not drawn) gave a pIC50 of 6.52.
Under `O=C(O)CC1(O)CCC(CCN2CCN(c3ccncc3)CC2)CC1` (single isomer, unassigned) [3 cis-isomer] stands 6.52; under `O=C(O)CC1(O)CCC(CCN2CCN(c3ccncc3)CC2)CC1` (single isomer, unassigned) [3 trans-isomer], 8.22.
